Test results reported in PubChem BioAssay AID1822 (The Scripps Research Institute Molecular Screening Center, 2009).
This is a selection; strong and weak results do not stand in their true shares. Some results for these compounds are left out of this collection, so the calls shown say nothing about other tests. Activity calls are given as the source filed them.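 How the source made its calls: active means inhibition above the campaign mean inhibition over all tested compounds plus 3 SD (cut at about 28% in these data); inactive means the rest.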

These compounds were tested on M18 aspartyl aminopeptidase (Plasmodium falciparum 3D7) (assay: PfM18AAP inhibitors, malaria aminopeptidase, primary screen, biochemical, QFRET, recombinant enzyme (AID 1822;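 further: 0% = plate median of test compound wells and 100% = 2 mM ZnCl2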)). Details: H-Glu-NHMec fluorogenic cleavage, at 7.35 µM, active compounds read high.

| SMILES | inhibition |
| --- | --- |
| O=C(NCC1(N2CCCCC2)CCCCC1)c1cccc(Cl)c1 | inactive: -4.19% |
| COc1ccc(Cl)cc1C(=O)NCC1(N(C)C)CCCCC1 | inactive: -12.7% |
| COc1cccc(C(=O)NCC2(N3CCCCC3)CCCCC2)c1 | inactive: 4.32% |
| COc1cc(C(=O)NCC2(N(C)C)CCCCC2)c([N+](=O)[O-])cc1OC | inactive: 25% |
| CN(C)C1(CNC(=O)c2ccc(Br)cc2)CCCCC1 | inactive: 1.37% |
| CN(C)c1cccc(C(=O)NCC2(N(C)C)CCCCC2)c1 | inactive: -2.22% |
| CC(C)Oc1ccc(C(=O)NCC2(N(C)C)CCCCC2)cc1 | inactive: -18.3% |
| COc1ccc(Br)c(C(=O)NCC2(N3CCCCC3)CCCCC2)c1 | inactive: -9.44% |
| O=C(OC1CN2CCC1CC2)C(CO)(c1ccccc1)c1ccccc1 (centres undefined) | inactive: -1.2% |
| Cc1ccc(C(=O)NCC2(N3CCCCC3)CCCCC2)cc1 | inactive: 4.69% |
| CC(C)N1C(=O)CC2(CCN(CCOC(=O)C(O)(c3ccccc3)c3ccccc3)CC2)C1=O | inactive: -8.58% |
| COc1cc(SC)ccc1C(=O)NCC1(N(C)C)CCCCC1 | inactive: -8.13% |
| CCN(CC)CC(C)C(C)OC(=O)C(O)(c1ccccc1)c1ccccc1 (centres undefined) | inactive: -3.21% |
| CN1[C@@H]2CC[C@H]1CC(OC(=O)C(O)(c1ccccc1)c1ccccc1)C2 (some centres undefined) | inactive: -6.21% |
| O=C(NCC1(N2CCCCC2)CCCCC1)c1cc([N+](=O)[O-])ccc1Cl | inactive: -5.35% |
| O=C(NCC1(N2CCCCC2)CCCCC1)c1cccc(Br)c1 | inactive: 2.65% |
| CCN1CCCC(OC(=O)C2(O)c3ccccc3C=Cc3ccccc32)C1 (centres undefined) | inactive: -6.1% |
| Cc1cc(C(=O)NCC2(N3CCCCC3)CCCCC2)ccc1[N+](=O)[O-] | inactive: -0.94% |
| COc1ccc(C(=O)NCC2(N(C)C)CCCCC2)cc1 | inactive: -11.7% |
| O=C(NCC1(N2CCCCC2)CCCCC1)c1cc(F)c(F)cc1Cl | inactive: 4.12% |
| C=CCN1CCN(CCOC(=O)C(O)(c2ccccc2)c2ccccc2)CC1 | inactive: -3.38% |
| CN(C)c1ccc(C(=O)NCC2(N(C)C)CCCCC2)cc1 | inactive: 6.29% |
| CN(C)C1CCCC1OC(=O)C(O)(c1ccccc1)c1ccccc1 (centres undefined) | inactive: 1.46% |
| Cc1ccccc1C(=O)NCC1(N2CCCCC2)CCCCC1 | inactive: -5.79% |
